# Reference: article PMC6803667, “Binding site plasticity in viral PPxY Late domain recognition by the third WW domain of human NEDD4” (Scientific Reports, 2019)
# Protein sequences, listed by entry. Tags and fused reporters are not part of them. Residues count along the entry.
# UniProt P46934, 834-878: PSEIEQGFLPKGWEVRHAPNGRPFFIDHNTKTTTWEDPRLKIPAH
# Molecular target: T1, hNEDD4-WW3 (Homo sapiens, UniProt P46934)
# T1 construct: comprising aminoacids 834–878 (UniProtKB/Swiss-Prot code P46934); GST-His (pETM-30, TEV site) (N, cleaved yes); made in house; host or cells: E. coli BL21/DE3 is printed only for the pETM-11 NMR construct
# Format: binding
smiles,measurement,value
CC(=O)N1CCC[C@H]1C(=O)N1CCC[C@H]1C(=O)N1CCC[C@H]1C(=O)N[C@@H](Cc1ccc(O)cc1)C(N)=O [PPPY],"binding selectivity between hNEDD4-WW3, YAP-WW1 and YAP-WW2",do not distinguish between the three WW domains
